A word on the inhibition: it is the change of the read-out against control, counted positive when it falls.

By UniProt entry, the sequences of proteins in these tests, tags left out.
UniProt Q07820, whole entry: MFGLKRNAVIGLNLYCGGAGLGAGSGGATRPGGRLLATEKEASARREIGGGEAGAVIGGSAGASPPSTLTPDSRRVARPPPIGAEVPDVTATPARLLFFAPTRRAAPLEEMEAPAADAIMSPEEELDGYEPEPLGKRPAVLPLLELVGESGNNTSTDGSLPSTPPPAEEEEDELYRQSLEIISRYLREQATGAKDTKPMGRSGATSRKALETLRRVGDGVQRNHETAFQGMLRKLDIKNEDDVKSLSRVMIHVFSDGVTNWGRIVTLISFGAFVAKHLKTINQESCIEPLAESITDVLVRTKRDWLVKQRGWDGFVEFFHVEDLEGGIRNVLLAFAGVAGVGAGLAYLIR

57 compounds from PubChem BioAssay AID1022 (Emory University Molecular Libraries Screening Center, 2008) can be followed below.

Molecules are shown by their SMILES. The list shows a part of the results, in another mix than the full data. Calls of active or inactive are those of the source.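 How the source made its calls: active means compounds that cut the protein-peptide binding signal by more than 50% relative to plate controls in a single-dose test; inactive means the rest.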

The assay deals with Induced myeloid leukemia cell differentiation protein Mcl-1 (Homo sapiens) (UniProt Q07820). Briefly: Mcl-1/Noxa binding inhibitors, primary screen, biochemical, TR-FRET, 1536-well (AID 1022).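 Further: His-tagged Mcl-1 with rhodamine Noxa BH3 peptide and terbium anti-His antibody; 0% = Mcl-1 plus Noxa peptide wells and 100% = peptide-only wells.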 The conditions noted are these: TR-FRET Mcl-1/Noxa peptide binding, 2 h; at 21.7 µM; stronger effect = higher value. Background: In TR-FRET formats the signal depends on donor and acceptor labels being close together.
Consider `O=C(OCCCN1CCCC1)C(O)(c1ccccc1)C1CCCCC1` (configuration not stated), for which the inhibition was inactive: 8.69%. As to `COc1ccc(OP(C)(=O)Nc2ccc(Br)cc2)cc1` (configuration not stated), the inhibition is inactive: 14.1%. As for `CCN(CC)CC(O)COC(=O)C(O)(c1ccccc1)C1CCCCC1` (configuration not stated), the figure is inactive: 5.43%. Consider `CP(=O)(OC12CC3CC(CC(C3)C1)C2)OC12CC3CC(CC(C3)C1)C2`, for which the inhibition is inactive: -9.45%. `CCOC(=O)c1ccc(NP(C)(=O)Oc2ccc(Cl)cc2)cc1` (configuration not stated): the inhibition is inactive: -1.64%.

For `CP(=O)(Nc1ccc(Cl)cc1Cl)Oc1ccccc1` (configuration not stated), the inhibition was inactive: 5.5%.

In the case of `CP(=O)(OCCOc1ccccc1)OCCOc1ccccc1`, the inhibition was inactive: 20.4%.

Regarding `Cc1nc2ccc3ccccc3c2o1.O=[N+]([O-])c1cc([N+](=O)[O-])c(O)c([N+](=O)[O-])c1`, the inhibition was inactive: 23.9%. As to `COc1ccc(OP(C)(=O)Nc2ccccc2Br)cc1` (configuration not stated), the inhibition is inactive: 10.1%. Next, `COc1ccccc1OP(C)(=O)Nc1ccc(C)c(C)c1` (configuration not stated): inactive: -18.6%; `Cc1cc(C)cc(OP(C)(=O)Nc2cccc(C(F)(F)F)c2)c1` (configuration not stated): inactive: 12.4%. As for `CCc1ccc(OP(C)(=O)O)cc1`, the figure is inactive: 27.4%. Next, `COc1ccccc1OP(C)(=O)Nc1ccc(C)cc1C` (configuration not stated): inactive: -4.55%; `CP(=O)(Nc1ccccn1)Oc1ccccc1` (configuration not stated): inactive: 10.3%; `Cc1c(NP(C)(=O)Oc2ccc(C(C)C)cc2)c(=O)n(-c2ccccc2)n1C` (configuration not stated): inactive: 1.35%.

`O=[N+]([O-])c1cc([N+](=O)[O-])c(Nc2ccccn2)c([N+](=O)[O-])c1`: the inhibition is inactive: 10.9%.

Regarding `CN(C)CCOC(=O)C(O)(c1ccccc1)C1CCCC1` (configuration not stated), the inhibition was inactive: 13.2%. Next, `COc1ccc(OP(C)(=O)Nc2ccccn2)cc1` (configuration not stated): inactive: 12.5%; `COc1ccccc1OP(C)(=O)Nc1ccc(Br)cc1` (configuration not stated): inactive: -1.27%.

On to `CCN(CC)CCCOC(=O)C(O)(c1ccccc1)c1ccccc1`, for which the inhibition was inactive: -4.16%.

As to `COc1ccc(OP(C)(=O)Nc2cccc(F)c2)cc1` (configuration not stated), the inhibition is inactive: 20.7%. Next, `COc1ccccc1OP(C)(=O)Nc1cc(Cl)ccc1C` (configuration not stated): inactive: 11.7%; `Cc1cc(C)cc(OP(C)(N)=O)c1` (configuration not stated): inactive: 1.62%; `CCOC(=O)c1ccc(NP(C)(=O)Oc2ccccc2)cc1` (configuration not stated): inactive: 11%. On to `Cc1ccc(NP(C)(=O)Oc2ccccc2)c(C)c1` (configuration not stated), for which the inhibition is inactive: 12.8%. As for `COc1ccccc1OP(C)(=O)Nc1ccc(C)cc1` (configuration not stated), the inhibition was inactive: -4.79%. As for `Cc1cccc(C)c1OP(C)(N)=O` (configuration not stated), the inhibition is inactive: 27%. As for `CC(C)(C)c1ccc(OP(C)(=O)Nc2ccc(SC(F)(F)F)cc2)cc1` (configuration not stated), the figure is inactive: 8.4%; as for `O=[N+]([O-])c1ccc2c(c1)C=Nc1ccccc1O2`, inactive: 12.1%. `COc1ccccc1OP(C)(=O)Nc1ccccc1` (configuration not stated): the inhibition was inactive: 14.8%.

Consider `CP(=O)(Nc1ccccc1Br)Oc1ccccc1` (configuration not stated), for which the inhibition is inactive: 2.08%. As for `CP(=S)(Nn1cnnc1)Oc1ccccc1` (configuration not stated), the figure is inactive: 23.5%.

As to `CP(=O)(Nc1ccccn1)Oc1ccc(Cl)cc1` (configuration not stated), the inhibition is inactive: -3.41%. As for `CCOP(C)(=S)SCC(=O)NC(C)C(=O)O` (configuration not stated), the inhibition was inactive: 9.02%. On to `CCOC(=O)c1ccc(NP(C)(=O)Oc2ccc(OC)cc2)cc1` (configuration not stated), for which the inhibition was inactive: -4.72%. For `Cc1cc(C)cc(OP(C)(=O)Nc2ccc(SC(F)(F)F)cc2)c1` (configuration not stated), the inhibition is inactive: 5.35%. Next, `CP(=O)(NC(=O)Nc1ccccc1)Oc1ccccc1` (configuration not stated): inactive: -2.99%; `CCc1ccc(OP(C)(=O)N2CCN(c3ccc([N+](=O)[O-])cc3)CC2)cc1` (configuration not stated): inactive: -7.49%. Consider `CP(=O)(Oc1ccccc1)OC(c1ccccc1)C(F)(F)F` (configuration not stated), for which the inhibition was inactive: 8.75%. For `CP(=O)(Nc1ccc(SC(F)(F)F)cc1)Oc1ccc(Cl)cc1` (configuration not stated), the inhibition is inactive: 0.63%. As for `Cc1cccc(C)c1OP(C)(=O)Nc1ccc(SC(F)(F)F)cc1` (configuration not stated), the figure is inactive: -5.39%; as for `Cc1nc2ccc3ccccc3c2s1.O=[N+]([O-])c1cc([N+](=O)[O-])c(O)c([N+](=O)[O-])c1`, inactive: 25.7%.

Consider `O=[N+]([O-])c1cc([N+](=O)[O-])c(-n2nnc3ccccc32)c([N+](=O)[O-])c1`, for which the inhibition was active: 52.6%. Regarding `CCCOc1ccc(NP(C)(=O)Oc2ccc(Cl)cc2)cc1` (configuration not stated), the inhibition was inactive: 10.5%. As for `CP(=O)(Nc1ccc(SC(F)(F)F)cc1)Oc1ccccc1` (configuration not stated), the figure is inactive: 15%.

As to `CN1CCCCC1COC(=O)C1(O)c2ccccc2CCc2ccccc21` (configuration not stated), the inhibition was inactive: 11.1%. Next, `COc1ccccc1OP(C)(=O)Nc1c(C)cccc1C` (configuration not stated): inactive: 2.95%; `CCOC(=O)C(CC)C1=NC(C)(C)Cc2ccccc21.O=[N+]([O-])c1cc([N+](=O)[O-])c(O)c([N+](=O)[O-])c1` (configuration not stated): inactive: 13.8%. For the compound `O=[N+]([O-])c1cc([N+](=O)[O-])c(Nc2nnnn2CCO)c([N+](=O)[O-])c1`, the inhibition is inactive: 11.1%. As for `CC1=NCCc2c1[nH]c1ccccc21.O=[N+]([O-])c1cc([N+](=O)[O-])c(O)c([N+](=O)[O-])c1`, the figure is inactive: 18.6%; as for `O=C(O)c1cccc(Nc2c([N+](=O)[O-])cc([N+](=O)[O-])cc2[N+](=O)[O-])c1`, inactive: 19.9%; as for `Cc1cc(C)cc(OP(C)(=O)Nc2ccccn2)c1` (configuration not stated), inactive: 8.43%. In the case of `CP(=O)(Nc1cccc(Br)c1)Oc1ccccc1` (configuration not stated), the inhibition is inactive: -3.03%.

As to `Cc1ccc(C)c(NP(C)(=O)Oc2ccccc2)c1` (configuration not stated), the inhibition was inactive: -0.35%. As for `Cc1cc(C)cc(OP(C)(=O)Nc2ccc(C)cc2C)c1` (configuration not stated), the figure is inactive: -5.57%; as for `CCOC(=O)c1ccc(NP(C)(=O)Oc2cc(C)cc(C)c2)cc1` (configuration not stated), inactive: 6.14%; as for `COc1ccccc1OP(C)(=O)Nc1cccc(Br)c1` (configuration not stated), inactive: 24.4%.
